System: Colon Adenocarcinoma C51
Experiment: CPT-11, cisplatin and combination, three-arm study in mice bearing colon adenocarcinoma C51
Details: Cisplatin i.v. 5.0 mg/kg/adm, days 4, 7

Q: cis-diaminedichloroplatinum was tested. Which Comments did it give?
A: Its Comments is “Toxic”.

— patent US6545010B2, “Composition comprising camptothecin or a camptothecin derivative and a platin derivative for the treatment of cancer” (priority 2000, dated 2003)
